# Ab-14 light chain CDR variants: yeast mating affinities

From the AlphaSeq antibody data of Li et al. 2023 (doi:10.1038/s41467-023-39022-2), copy in the FLAb collection.

Antigen: PDVDLGDISGINAS, a 14-residue peptide of the SARS-CoV-2 spike HR2 region.

Parent scFv Ab-14: VH joined to VL by a (GGGGS)3 linker. Changes lie in the light chain CDRs alone.
VH: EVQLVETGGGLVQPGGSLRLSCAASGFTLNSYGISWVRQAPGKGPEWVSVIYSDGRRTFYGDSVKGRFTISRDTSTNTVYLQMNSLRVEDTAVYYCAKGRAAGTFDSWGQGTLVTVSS
VL: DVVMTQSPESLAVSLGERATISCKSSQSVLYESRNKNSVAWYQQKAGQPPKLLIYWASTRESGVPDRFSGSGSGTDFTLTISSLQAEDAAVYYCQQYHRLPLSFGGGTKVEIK

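The starting antibody came from a phage panning campaign against this peptide. Designed CDR sequences, proposed from the first random library and measured here. Several design methods are mixed in this list. The assay is AlphaSeq: two haploid yeast populations carry antibody and antigen on their surface. Pairs that bind mate more often; barcode pairs of the diploids are counted by sequencing. The ratio of observed to expected reads was calibrated, replicate by replicate, on BCL2-family standards whose Kd was known from biolayer interferometry. Mating was done six times.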

Changes read parent residue, position, new residue, counted from the first residue of the VL shown. Variants here have at most six changes. Each Kd is an estimate from the mating assay, the geometric mean of the replicates in which the pair was seen; lower is stronger. "not detected" marks a missing value. The strain was present, yet no cells mated with the target were sequenced in any replicate, which points to weak or no binding. A sequence measured in both rounds can read differently, since the two assays cover different ranges. Three control strains display no target. For all light chain designs, 4% of the pairings with them gave a signal, with a median of 430 nM and one signal in twenty below 38 nM, so weak values seen in few replicates may be background. In the paper, a design with two or fewer of six values counts as a poor binder.

changes,apparent Kd,replicates with signal
S25C+L30G+T59H+S62Q+P101F,94 nM,4 of 6
S25L+W56E+T59Q+S62M,3.2 nM,6 of 6
S25L+S26Q+V29E+L30D+W56N,490 pM,6 of 6
Q27E+S33D,400 nM,1 of 6
S38E+S58Y,not detected,0 of 6
S25L+L30P+K36T+W56N,520 pM,6 of 6
S28P+T59E+S62V,52 nM,6 of 6
S28Y+E32G,240 nM,3 of 6
S25I+S38A+W56D+R99W,470 pM,6 of 6
S25V+R34M+W56N,2.2 nM,6 of 6
S25F+S28A+N35T+W56N,2.0 nM,6 of 6
E32Q+V39I+W56N+H98F+R99I,2.6 nM,6 of 6
S26P+W56E,1.8 nM,6 of 6
S25L+S26E+V29F+L30N+W56N,400 pM,6 of 6
S25L+S26Q+L30D+W56N,660 pM,6 of 6
S25Y+E32N+S103I,10 nM,1 of 6
S25L+S26A+L30P+W56N,3.9 nM,6 of 6
N35E+W56Q,7.0 nM,6 of 6
S25L+S26Q+Q27F+V29E+W56E,2.9 nM,6 of 6
K24H+Q27P+K36E+W56N,1.2 nM,6 of 6
S25L+S26P+V29T+W56G,1.1 nM,6 of 6
S25K+S26R+V29T+P101H,not detected,0 of 6
V29W+W56G+T59L,490 pM,6 of 6
S25Q+S28E+L30P+Y31F+W56D,630 pM,6 of 6
S25V+V29Q+L30W+W56N,1.7 nM,6 of 6
K24Y+S25L+V29W+W56N,430 pM,6 of 6
S26G+V29F+Y31Q+W56H+T59M,7.9 nM,6 of 6
S25L+V29W+S38N+W56E+E61M,340 pM,6 of 6
S26G+Q27C+S28G+L30E+W56G,4.2 nM,6 of 6
S25L+V29D+W56N+T59L,1.0 nM,6 of 6
S26L+Q27I+V29W+W56H+S62Q,26 nM,4 of 6
S25F+S28E+V29M+W56N+T59C,910 pM,6 of 6
S26D+S28G+V29A+W56G+T59Q+E61W,1.1 nM,6 of 6
W56D+T59Q,2.0 nM,6 of 6
S25A+S26E+W56G,520 pM,6 of 6
Q27W+R34G+W56H+S62D,3.6 nM,6 of 6
K24Q+V29F+P101H,20 nM,1 of 6
S25Q+L30P+S33W+W56D,640 pM,6 of 6
S25I+L30W+R34H+L102C,not detected,0 of 6
S25F+W56N+E61M+S62Q,580 pM,6 of 6
S25L+L30D+W56N+E61M,390 pM,6 of 6
S25L+Q27M+V29Q+W56N+T59Q,560 pM,6 of 6
Q27L+R34T,48 nM,6 of 6
S25L+Y31M+W56E+Q96A,4.5 nM,5 of 6
S26G+S28G+N37P+W56G,39 nM,6 of 6
S25L+V29M+K36W+W56Q+S62D+S103T,1.4 nM,6 of 6
Y31T+W56N+A57D,11 nM,6 of 6
Q27F+V29Y+K36T+W56E,1.6 nM,6 of 6
S25L+S26P+L30P+W56N+S62V,1.2 nM,6 of 6
S25V+S26Q+W56N+E61L,530 pM,6 of 6
S25V+N35M+W56D+E61C+S103E,710 pM,6 of 6
S25M+S26E+S28G+W56N+T59V,480 pM,6 of 6

The first 5 entries again:

| changes | apparent Kd | replicates with signal |
|---|---|---|
| S25C+L30G+T59H+S62Q+P101F | 94 nM | 4 of 6 |
| S25L+W56E+T59Q+S62M | 3.2 nM | 6 of 6 |
| S25L+S26Q+V29E+L30D+W56N | 490 pM | 6 of 6 |
| Q27E+S33D | 400 nM | 1 of 6 |
| S38E+S58Y | not detected | 0 of 6 |